Laboratory results published in US20100297606A1 (KAGOSHIMA UNIVERSITY, published 2010).

Target: T1, anti-HER2 human antibody (Herceptin), acid-treated
T1 construct: Same antibody as m38 after acid treatment and neutralisation; also called acid-treated anti-HER2 human IgG; acid-denatured anti-HER2 human IgG
Assay: SPR, peptides on sensor chips, antibody 250 nM; acid treatment pH 1.5, 20 C, 10 min; reference Fc-III peptide
Procedure: For this SPR analysis, human IgG samples were prepared via acid treatment under various conditions as described below and then tested. […] Subsequently, 30 μl (or 20 μl for a sample to which glycine-HCl with pH 2.7 had been added) of 1 M Tris-HCl (pH 8.7) was added to each solution for neutralization.

B1: synthetic peptide IMGpep-4K6R (peptide)
peptide: GCTGYWPRAWGLCG
modifications: N-terminal amino group biotinylated (biotin-spacer, Sulfo-NHS-LC-Biotin); disulfide bond between the two Cys
notes: also called biotinylated IMGpep-4K6R
generation rate of acid-denatured IgG (ratio a/b of the SPR response on the IMGpep-4K6R chip to that on the Fc-III chip): 12.8%
